Reference: patent US7943641B2, “7-((1H-imidazol-4-yl)methyl)-5,6,7,8-tetrahydroquinoline” (Allergan, Inc., priority 2006, dated 2011)

Chains of the proteins cited; added tags and fusions are not shown.
UniProt P08913, whole entry: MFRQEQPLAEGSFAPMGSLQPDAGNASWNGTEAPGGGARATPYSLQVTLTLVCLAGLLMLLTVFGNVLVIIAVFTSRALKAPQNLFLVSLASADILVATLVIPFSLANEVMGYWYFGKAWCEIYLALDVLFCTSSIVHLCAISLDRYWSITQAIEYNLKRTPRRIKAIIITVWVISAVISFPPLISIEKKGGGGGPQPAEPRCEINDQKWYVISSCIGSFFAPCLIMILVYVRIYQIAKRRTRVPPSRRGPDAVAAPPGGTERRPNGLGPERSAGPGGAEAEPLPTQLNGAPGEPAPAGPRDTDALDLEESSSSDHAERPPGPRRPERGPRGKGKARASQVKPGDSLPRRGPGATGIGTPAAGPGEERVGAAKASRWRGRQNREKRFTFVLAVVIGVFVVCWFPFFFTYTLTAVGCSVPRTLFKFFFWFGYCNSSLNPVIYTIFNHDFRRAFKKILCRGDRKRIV
UniProt P18089, whole entry: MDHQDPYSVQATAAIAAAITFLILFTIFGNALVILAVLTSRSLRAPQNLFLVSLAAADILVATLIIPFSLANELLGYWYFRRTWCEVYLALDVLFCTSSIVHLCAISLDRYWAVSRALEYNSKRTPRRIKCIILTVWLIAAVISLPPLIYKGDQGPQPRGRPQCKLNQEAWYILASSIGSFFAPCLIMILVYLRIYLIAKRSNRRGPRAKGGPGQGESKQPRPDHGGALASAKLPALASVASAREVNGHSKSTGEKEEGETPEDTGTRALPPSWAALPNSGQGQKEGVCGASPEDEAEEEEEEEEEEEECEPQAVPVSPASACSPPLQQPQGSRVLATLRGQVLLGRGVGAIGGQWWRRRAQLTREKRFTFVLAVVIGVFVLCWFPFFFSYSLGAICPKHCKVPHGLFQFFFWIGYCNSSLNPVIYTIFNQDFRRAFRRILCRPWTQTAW
UniProt P18825, whole entry: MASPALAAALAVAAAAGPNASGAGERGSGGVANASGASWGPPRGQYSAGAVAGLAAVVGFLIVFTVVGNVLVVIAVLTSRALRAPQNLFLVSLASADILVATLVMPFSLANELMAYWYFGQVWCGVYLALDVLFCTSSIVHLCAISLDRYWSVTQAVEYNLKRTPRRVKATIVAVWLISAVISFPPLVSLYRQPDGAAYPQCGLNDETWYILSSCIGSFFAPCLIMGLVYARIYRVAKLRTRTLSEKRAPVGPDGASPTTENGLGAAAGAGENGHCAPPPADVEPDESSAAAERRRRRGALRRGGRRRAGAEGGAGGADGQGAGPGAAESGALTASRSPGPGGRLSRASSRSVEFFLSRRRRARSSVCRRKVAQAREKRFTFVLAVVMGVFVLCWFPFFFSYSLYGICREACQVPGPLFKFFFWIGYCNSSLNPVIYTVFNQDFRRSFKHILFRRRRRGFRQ

Tests used:
[1] = target: T1, α2A adrenergic receptor (Homo sapiens, UniProt P08913); assay: RSAT (Receptor Selection and Amplification Technology) assay, α2A; assay type: cell-based; details: ratio of maximal effect to that of standard full agonist (brimonidine)
T1 construct: expressed in transfected cells; host or cells: NIH-3T3 cells
Experimental: Incubations continue 72-96 hr at 37° C.

[2] = target: T2, α1A adrenergic receptor (Homo sapiens, UniProt P35348); assay: cell-based; details: for EC50: RSAT EC50 α1A, NIH-3T3 cells cotransfected with receptor and G protein; for RSAT relative efficacy α1A: ratio of maximal effect to that of a standard full agonist
T2 sequence (P35348 1-466): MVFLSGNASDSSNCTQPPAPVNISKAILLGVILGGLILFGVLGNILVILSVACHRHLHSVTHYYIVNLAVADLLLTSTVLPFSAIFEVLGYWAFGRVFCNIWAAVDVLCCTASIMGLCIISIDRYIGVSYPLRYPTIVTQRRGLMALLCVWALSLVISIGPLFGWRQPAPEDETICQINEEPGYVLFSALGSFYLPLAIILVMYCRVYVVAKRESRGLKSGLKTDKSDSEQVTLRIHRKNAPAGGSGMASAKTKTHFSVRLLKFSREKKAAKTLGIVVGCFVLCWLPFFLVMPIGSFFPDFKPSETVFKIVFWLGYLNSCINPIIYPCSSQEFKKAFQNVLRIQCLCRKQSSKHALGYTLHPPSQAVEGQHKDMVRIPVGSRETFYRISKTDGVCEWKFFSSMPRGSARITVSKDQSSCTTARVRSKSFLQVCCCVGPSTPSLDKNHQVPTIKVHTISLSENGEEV
Experimental: (§1) The RSAT assay measures a receptor-mediated loss of contact inhibition that results in selective proliferation of receptor-containing cells in a mixed population of confluent cells. The increase in cell number is assessed with an appropriate transfected marker gene such as β-galactosidase, the activity of which can be easily measured in a 96-well format. Receptors that activate the G protein, Gq, elicit this response. Alpha2 receptors, which normally couple to Gi, activate the RSAT response when coexpressed with a hybrid Gq protein that has a Gi receptor recognition domain, called Gq/i5.
(§2) NIH-3T3 cells are plated at a density of 2×10^6 cells in 15 cm dishes and maintained in Dulbecco's modified Eagle's medium supplemented with 10% calf serum. One day later, cells are cotransfected by calcium phosphate precipitation with mammalian expression plasmids encoding p-SV-β-galactosidase (5-10 μg), receptor (1-2 μg) and G protein (1-2 μg). 40 μg salmon sperm DNA may also be included in the transfection mixture. Fresh media is added on the following day and 1-2 days later, cells are harvested and frozen in 50 assay aliquots. Cells are thawed and 100 μl added to 100 μl aliquots of various concentrations of drugs in triplicate in 96-well dishes. Incubations continue 72-96 hr at 37° C. After washing with phosphate-buffered saline, β-galactosidase enzyme activity is determined by adding 200 μl of the chromogenic substrate (consisting of 3.5 mM o-nitrophenyl-β-D-galactopyranoside and 0.5% nonidet P-40 in phosphate buffered saline), incubating overnight at 30° C. and measuring optical density at 420 nm. The absorbance is a measure of enzyme activity, which depends on cell number and reflects a receptor-mediated cell proliferation. The efficacy or intrinsic activity is calculated as a ratio of the maximal effect of the drug to the maximal effect of a standard full agonist for each receptor subtype.
(§3) NA stands for “not active” at concentrations less than 10 micromolar.

[3] = target: α2B adrenergic receptor (Homo sapiens, UniProt P18089); assay: cell-based; details: for EC50: RSAT EC50 α2B, NIH-3T3 cells cotransfected with receptor and G protein; for RSAT relative efficacy α2B: ratio of maximal effect to that of standard full agonist (brimonidine)
Experimental: as §1, §2, §3

[4] = target: α2C adrenergic receptor (Homo sapiens, UniProt P18825); assay: cell-based; details: for EC50: RSAT EC50 α2C, NIH-3T3 cells cotransfected with receptor and G protein; for RSAT relative efficacy α2C: ratio of maximal effect to that of standard full agonist (brimonidine)
Experimental: as §1, §2, §3

For `c1cnc2c(c1)CCC(Cc1c[nH]cn1)C2` (single isomer, unassigned; (+)) [(+) enantiomer, (+)-7-(1H-imidazol-4-ylmethyl)-5,6,7,8-tetrahydro-quinoline dihydrochloride], the “RSAT relative efficacy α2A” value ([1]; dihydrochloride) was “(0.67 eff)”, the EC50 [2] was 19.7 nM and the “RSAT relative efficacy α1A” value ([2]; dihydrochloride) was “(0.85 eff)”. The EC50 [3] was 0.2 nM, the “RSAT relative efficacy α2B” value ([3]; dihydrochloride) was “(0.98 eff)” and the EC50 [4] was 1.1 nM. The “RSAT relative efficacy α2C” value ([4]; dihydrochloride) was “(0.83 eff)”.

In the case of `c1cnc2c(c1)CCC(Cc1c[nH]cn1)C2` (single isomer, unassigned; (-)) [(−) enantiomer, (−) 7-((1H-imidazol-4-yl)methyl)-5,6,7,8-tetrahydroquinoline], the “RSAT relative efficacy α2A” value [1] is reported as “(0.33 eff)”, the EC50 [2] is reported as 806 nM and the “RSAT relative efficacy α1A” value [2] is reported as “(0.49 eff)”. The EC50 [3] was 7 nM, the “RSAT relative efficacy α2B” value [3] was “(1.0 eff)” and the EC50 [4] was 22.7 nM. The “RSAT relative efficacy α2C” value [4] was “(0.7 eff)”.

With `c1cnc2c(c1)CCC(Cc1c[nH]cn1)C2` (racemic) [racemic mixture, 7-(1H-Imidazol-4-ylmethyl)-5,6,7,8-tetrahydro-quinoline dihydrochloride] the “RSAT relative efficacy α2A” value [1] was “(0.72 eff)”, the EC50 [2] was 38.8 nM and the “RSAT relative efficacy α1A” value [2] was “(1.43 eff)”. For the same compound, the EC50 [3] was 0.1 nM, the “RSAT relative efficacy α2B” value [3] was “(1.0 eff)” and the EC50 [4] was 4 nM. The “RSAT relative efficacy α2C” value [4] was “(1.0 eff)”.

Where a name gives a salt, the structure may show the parent alone.
